Here are results for 1 molecule from patent publication US10137210B2, “Thioflavin derivatives for use in antemortem diagnosis of Alzheimer's disease and in vivo imaging and prevention of amyloid deposition” (UNIVERSITY OF PITTSBURGH—OF THE COMMONWEALTH SYSTEM OF …, priority 2000, dated 2018).

The chains behind the UniProt entries cited, without tags or fusion partners. Residues count along the entry.
UniProt P05067, 672-711: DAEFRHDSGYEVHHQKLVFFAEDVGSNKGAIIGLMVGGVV

For the test, the target named is Aβ(1-40) fibrils (Homo sapiens (Human), UniProt P05067). As to the kind of experiment: [N-methyl-11C]BTA-1 binding assay with Aβ(1-40) fibrils. The settings on record: competition for Aβ sites, FIG. 5 right panel.

Usually Ki stands for a dissociation constant, usually derived from enzyme kinetics or from competition with a known ligand. Low readings indicate higher affinity, high ones lower affinity.

For the molecule `Cc1ccc2c(c1)sc(-c1ccc(N(C)C)cc1)[n+]2C.[Cl-]` [ThT, Thioflavin T, reference compound], the Ki turned out to be 1900 ± 510 nM.
